Here are results for 36 compounds from US20250101001A1 (priority 2021, published 2025).

Sequences of proteins named here, by UniProt entry; tags and fusion partners are left off. Residues count along the entry.
UniProt P28335, whole entry I156V/N158S/I160V, looked up: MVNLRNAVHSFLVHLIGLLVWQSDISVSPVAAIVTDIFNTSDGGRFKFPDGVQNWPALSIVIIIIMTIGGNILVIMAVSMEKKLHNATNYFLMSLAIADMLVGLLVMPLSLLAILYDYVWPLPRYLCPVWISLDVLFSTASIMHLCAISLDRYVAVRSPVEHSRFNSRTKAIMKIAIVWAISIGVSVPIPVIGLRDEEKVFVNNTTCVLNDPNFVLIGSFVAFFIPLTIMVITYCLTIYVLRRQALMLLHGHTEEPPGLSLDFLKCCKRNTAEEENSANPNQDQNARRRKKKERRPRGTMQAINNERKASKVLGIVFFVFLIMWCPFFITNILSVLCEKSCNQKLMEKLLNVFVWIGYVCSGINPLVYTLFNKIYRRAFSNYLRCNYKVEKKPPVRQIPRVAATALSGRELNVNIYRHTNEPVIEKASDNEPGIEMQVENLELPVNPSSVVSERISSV
UniProt P28335, 33-458 I156V/N158S/I160V limits assumed: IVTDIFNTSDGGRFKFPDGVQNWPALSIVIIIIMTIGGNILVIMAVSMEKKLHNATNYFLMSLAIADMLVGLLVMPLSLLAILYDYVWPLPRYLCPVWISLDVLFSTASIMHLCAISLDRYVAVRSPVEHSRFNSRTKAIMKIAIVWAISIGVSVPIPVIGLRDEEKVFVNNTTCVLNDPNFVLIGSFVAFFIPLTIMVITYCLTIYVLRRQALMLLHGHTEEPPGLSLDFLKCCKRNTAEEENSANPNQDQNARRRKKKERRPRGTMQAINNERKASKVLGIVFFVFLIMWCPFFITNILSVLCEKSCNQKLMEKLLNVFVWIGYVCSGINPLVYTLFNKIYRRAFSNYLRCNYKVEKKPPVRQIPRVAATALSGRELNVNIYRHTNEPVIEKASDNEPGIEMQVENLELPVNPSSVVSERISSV

pEC50, pIC50: −log10 of the molar value. Where only a bound is given, the exact number is not on record here.

Assay [1] concerns the target human recombinant 5-HT2Cedited receptor (Homo sapiens, UniProt P28335, I156V/N158S/I160V). Nature of the assay: Serotonin 5-HT2C in vitro cellular IPOne agonism assay. The note with it: read-out: 5HT2C IPOne Agonism Activity; CHO-K1 cells, IPOne HTRF, agonist mode. In general terms: Time-resolved FRET reads energy transfer from a long-lived donor to a nearby acceptor.
Assay [2] addresses 5-HT2Cedited (accession number AAF35842.1) (Homo sapiens, UniProt P28335, I156V/N158S/I160V). Nature of the assay: Serotonin 5-HT2C in vitro radioligand binding competition assay ([3H]-DOI). The settings on record: read-out: 5HT2C Radioligand Binding Activity; [3H]-DOI competition, membrane extracts.
Assay [3] addresses human recombinant 5-HT2C receptor (Homo sapiens, UniProt P28335, I156V/I160V/N158S). As to the kind of experiment: Serotonin 5-HT2C in vitro cellular IPOne antagonism assay. The settings on record: read-out: 5HT2C IPOne Antagonism Activity; CHO-K1 cells, IPOne HTRF, reference agonist a-Me-5HT.

With `Cc1cn(C2CNC2)c2ccc(F)cc12` [Compound 1, 1-(azetidin-3-yl)-5-fluoro-3-methyl-1H-indole], the pEC50 in assay [1] was 6.00 to 7.00.
As for `Fc1ccc2c(ccn2C2CNC2)c1F` [Compound 2, 1-(azetidin-3-yl)-4,5-difluoro-1H-indole], the pEC50 in assay [1] is 6.00 to 7.00.
Consider `Cc1cn(C2CCNCC2)c2ccc(F)cc12` [Compound 3, 5-fluoro-3-methyl-1-(piperidin-4-yl)-1H-indole], for which the pEC50 in assay [1] was 6.00 to 7.00.
In the case of `Fc1ccc2c(ccn2C2CCNCC2)c1F` [Compound 4, 4,5-difluoro-1-(piperidin-4-yl)-1H-indole], the pEC50 in assay [1] was 6.00 to 7.00.
For `Cc1cn(C2CN(C)C2)c2ccc(F)cc12` [Compound 5, 5-fluoro-3-methyl-1-(1-methylazetidin-3-yl)-1H-indole], the pEC50 in assay [1] was 6.00 to 7.00.
On the same count and under the same terms, as for `CN1CC(n2ccc3c(F)c(F)ccc32)C1` [Compound 6, 4,5-Difluoro-1-(1-methylazetidin-3-yl)-1H-indole], the figure is 6.00 to 7.00.
As for `Cc1cn(C2CCN(C)C2)c2ccc(F)cc12` (stereo not drawn) [Compound 7, 5-Fluoro-3-methyl-1-(1-methylpyrrolidin-3-yl)-1H-indole], the pEC50 in assay [1] is 6.00 to 7.00. Also, the pIC50 in assay [2] is 6.00 to 7.00.
Take `CN1CCC(n2ccc3c(F)c(F)ccc32)C1` (stereo not drawn) [Compound 8, 4,5-difluoro-1-(1-methylpyrrolidin-3-yl)-1H-indole]: the pEC50 in assay [1] is 7.00 to 8.00.
The same measure, in the same setting: as for `Cc1cn(C2CCN(C)CC2)c2ccc(F)cc12` [Compound 9, 5-fluoro-3-methyl-1-(1-methylpiperidin-4-yl)-1H-indole], the figure is 6.00 to 7.00; as for `CN1CCC(n2ccc3c(F)c(F)ccc32)CC1` [Compound 10, 4,5-difluoro-1-(1-methylpiperidin-4-yl)-1H-indole], 6.00 to 7.00; as for `CC(C)c1cn(C2CCN(C)C2)c2ccc(F)cc12` (stereo not drawn) [Compound 11, 5-fluoro-3-isopropyl-1-(1-methylpyrrolidin-3-yl)-1H-indole], less than 5.00.
For `CN1CCC(n2cc(-c3ccccc3)c3cc(F)ccc32)C1` (stereo not drawn) [Compound 12, 5-fluoro-1-(1-methylpyrrolidin-3-yl)-3-phenyl-1H-indole], the pEC50 in assay [1] was less than 5.00. For the same compound, the pIC50 is 6.00 to 7.00 in assay [2] and 5.00 to 6.00 in assay [3].
On to `Cc1cn(C2CCN(C)C2)c2ccc(OC3COC3)cc12` (stereo not drawn) [Compound 13, 3-Methyl-1-(1-methylpyrrolidin-3-yl)-5-(oxetan-3-yloxy)-1H-indole], for which the pEC50 in assay [1] is 5.00 to 6.00. The pIC50 in assay [2] was 5.00 to 6.00.
Turning to `Fc1ccc2c(ccn2C2CCNC2)c1F` (stereo not drawn) [Compound 15, 4,5-Difluoro-1-(pyrrolidin-3-yl)-1H-indole], the pEC50 in assay [1] was 7.00 to 8.00. The pIC50 in assay [2] is 7.00 to 8.00.
For `CCN1CCC(n2cc(C)c3cc(F)ccc32)C1` (stereo not drawn) [Compound 16, 1-(1-Ethylpyrrolidin-3-yl)-5-fluoro-3-methyl-1H-indole], in assay [1], the pEC50 is 6.00 to 7.00. Besides, in assay [2], the pIC50 was 6.00 to 7.00.
Take `CCN1CCC(n2ccc3c(F)c(F)ccc32)C1` (stereo not drawn) [Compound 17, 1-(1-ethylpyrrolidin-3-yl)-4,5-difluoro-1H-indole]: the pEC50 in assay [1] is 6.00 to 7.00. Also, the pIC50 was 6.00 to 7.00 in assay [2] and less than 5.00 in assay [3].
For `Cc1cn(C2CCN(C(C)C)C2)c2ccc(F)cc12` (stereo not drawn) [Compound 18, 5-fluoro-1-(1-isopropylpyrrolidin-3-yl)-3-methyl-1H-indole], the pEC50 in assay [1] is less than 5.00. In addition, in assay [2], the pIC50 was 5.00 to 6.00.
Regarding `CC(C)N1CCC(n2ccc3c(F)c(F)ccc32)C1` (stereo not drawn) [Compound 19, 4,5-difluoro-1-(1-isopropylpyrrolidin-3-yl)-1H-indole], in assay [1], the pEC50 was 5.00 to 6.00. In assay [2], the pIC50 was 5.00 to 6.00.
Take `Cc1cn(C2CCN(C3COC3)C2)c2ccc(F)cc12` (stereo not drawn) [Compound 20, 5-fluoro-3-methyl-1-(1-(oxetan-3-yl)pyrrolidin-3-yl)-1H-indole]: the pEC50 in assay [1] was less than 5.00. Moreover, the pIC50 in assay [2] was less than 5.00.
Consider `Fc1ccc2c(ccn2C2CCN(C3COC3)C2)c1F` (stereo not drawn) [Compound 21, 4,5-difluoro-1-(1-(oxetan-3-yl)pyrrolidin-3-yl)-1H-indole], for which the pEC50 in assay [1] is less than 5.00. Besides, in assay [2], the pIC50 was less than 5.00.
On to `COCCN1CCC(n2cc(C)c3cc(F)ccc32)C1` (stereo not drawn) [Compound 22, 5-Fluoro-1-(1-(2-methoxyethyl)pyrrolidin-3-yl)-3-methyl-1H-indole], for which the pEC50 in assay [1] was 5.00 to 6.00. Further, the pIC50 in assay [2] is 5.00 to 6.00.
Consider `COCCN1CCC(n2ccc3c(F)c(F)ccc32)C1` (stereo not drawn) [Compound 23, 4,5-Difluoro-1-(1-(2-methoxyethyl)pyrrolidin-3-yl)-1H-indole], for which, in assay [1], the pEC50 was 6.00 to 7.00. The results for the pIC50 in assay [2] and in assay [3] were 5.00 to 6.00 and less than 5.00, respectively.
With `Clc1ccc2c(ccn2C2CNC2)c1` [Compound 24, 1-(azetidin-3-yl)-5-chloro-1H-indole], the pEC50 in assay [1] was 5.00 to 6.00. Besides, the pIC50 in assay [3] was less than 5.00.
In the case of `N#Cc1ccc2c(ccn2C2CNC2)c1` [Compound 25, 1-(azetidin-3-yl)-1H-indole-5-carbonitrile], in assay [1], the pEC50 is less than 5.00. Also, the pIC50 in assay [2] and in assay [3] was less than 5.00 throughout.
For `Fc1cccc2ccn(C3CNC3)c12` [Compound 26, 1-(azetidin-3-yl)-7-fluoro-1H-indole], the pEC50 in assay [1] is 6.00 to 7.00. Also, the pIC50 in assay [2] was 6.00 to 7.00; in assay [3] it was less than 5.00.
For the compound `Fc1ccc2c(ccn2C2CNC2)c1` [Compound 27, 1-(azetidin-3-yl)-5-fluoro-1H-indole], the pEC50 in assay [1] was 6.00 to 7.00. Besides, the pIC50 in assay [3] is less than 5.00.
For `Fc1ccc2ccn(C3CNC3)c2c1` [Compound 28, 1-(azetidin-3-yl)-6-fluoro-1H-indole], the pEC50 in assay [1] was 6.00 to 7.00. Further, the results for the pIC50 in assay [2] and in assay [3] were 7.00 to 8.00 and less than 5.00, respectively.
For the compound `COc1ccc2c(ccn2C2CNC2)c1` [Compound 29, 1-(azetidin-3-yl)-5-methoxy-1H-indole], the pEC50 in assay [1] was less than 5.00. Besides, the values for the pIC50 in assay [2] and in assay [3] were 5.00 to 6.00 and less than 5.00, respectively.
Regarding `CN1CC(n2ccc3cc(F)ccc32)C1` [Compound 30, 5-fluoro-1-(1-methylazetidin-3-yl)-1H-indole], in assay [1], the pEC50 was 5.00 to 6.00. Also, in assay [3], the pIC50 is less than 5.00.
With `COc1ccc2c(ccn2C2CN(C)C2)c1` [Compound 31, 5-methoxy-1-(1-methylazetidin-3-yl)-1H-indole], the pEC50 in assay [1] is less than 5.00. Moreover, the pIC50 in assay [2] is 5.00 to 6.00; in assay [3], less than 5.00.
In the case of `CN1CC(n2ccc3c(F)cccc32)C1` [Compound 32, 4-fluoro-1-(1-methylazetidin-3-yl)-1H-indole], in assay [1], the pEC50 was 6.00 to 7.00. Besides, the values for the pIC50 in assay [2] and in assay [3] were 7.00 to 8.00 and less than 5.00, respectively.
For the compound `CN1CC(n2ccc3ccc(F)cc32)C1` [Compound 33, 6-fluoro-1-(1-methylazetidin-3-yl)-1H-indole], the pEC50 in assay [1] was 6.00 to 7.00. In addition, the pIC50 in assay [3] is less than 5.00.
Take `CN1CC(n2ccc3cccc(F)c32)C1` [Compound 34, 7-fluoro-1-(1-methylazetidin-3-yl)-1H-indole]: in assay [1], the pEC50 is 6.00 to 7.00. In addition, the pIC50 in assay [2] was 7.00 to 8.00; in assay [3], less than 5.00.
Taken in the same sequence, the figures for `Cc1ccc2c(ccn2C2CN(C)C2)c1` [Compound 35, 5-methyl-1-(1-methylazetidin-3-yl)-1H-indole] were less than 5.00, 6.00 to 7.00 and 5.00 to 6.00.
In the case of `CN1CC(n2ccc3cc(Cl)ccc32)C1` [Compound 36, 5-chloro-1-(1-methylazetidin-3-yl)-1H-indole], in assay [1], the pEC50 was less than 5.00. Also, the pIC50 in assay [2] and in assay [3] was less than 5.00 each time.
On to `CN1CC(n2ccc3cc(C#N)ccc32)C1` [Compound 37, 1-(1-methylazetidin-3-yl)-1H-indole-5-carbonitrile], for which the pEC50 in assay [1] is less than 5.00. The pIC50 in assay [2] and in assay [3] was less than 5.00 in each case.
